For the experiment, the target named is Lactoylglutathione lyase (Homo sapiens, UniProt Q04760). Briefly: Inhibition of human GLO1.

Amino acid sequences for entries named in this document (tags omitted). A change or cut given only in a name is not applied to a line headed by its entry.
UniProt Q04760: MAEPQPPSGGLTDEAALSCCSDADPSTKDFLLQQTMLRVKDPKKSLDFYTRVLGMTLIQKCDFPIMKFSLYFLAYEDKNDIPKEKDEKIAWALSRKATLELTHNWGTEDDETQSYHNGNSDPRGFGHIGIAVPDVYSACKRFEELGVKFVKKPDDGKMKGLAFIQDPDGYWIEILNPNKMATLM

Molecules are shown by their SMILES.

As a reminder, the Ki is the equilibrium dissociation constant of an inhibitor or competing ligand from its target. Low readings indicate tighter binding, high ones weaker binding. Compound `COCCCn1ccc2cc(-c3cc(-c4ccccc4)cc(=O)n3O)cnc21` registered an inhibition constant Ki of 0.011 µM.
